From patent US20250051321A1, “TRICYCLIC DERIVATIVE AND PREPARATION METHOD THEREFOR AND APPLICATION THEREOF” (SHANGHAI JEMINCARE PHARMACEUTICAL CO., LTD., priority 2021, published 2025)
Where two headings read alike, the source gives them in different places.

Legend:
[1] = target: ATX (Homo sapiens (Human), UniProt Q13822); test: ATX enzyme inhibition assay (Amplex UltraRed/choline oxidase/HRP, 16:0 Lyso PC substrate); type: biochemical
[2] = target: plasma LPA 18:1 and LPA 18:2 (Homo sapiens, UniProt Q13822); test: Human plasma ex vivo assay (LPA 18:1 / 18:2 by LC-MS/MS); type: biochemical
[3] = read-out: IC50 (nM) pH 8.5, assay buffer pH 8.5
[4] = read-out: Human plasma ex vivo assay IC50 (18:1 LPA) nM, 37° C., 2 hours, LPA 18:1
[5] = read-out: Human plasma ex vivo assay IC50 (18:2 LPA) nM, 37° C., 2 hours, LPA 18:2

| IC50 [1, 3] | IC50 ([1]; read-out: IC50 (nM) pH 7.5, assay buffer pH 7.5) | IC50 [2, 4] | IC50 [2, 5] | Structure (SMILES) |
| --- | --- | --- | --- | --- |
| 26.6 nM | – | – | – | CN(C)C(=O)CN1CCN(c2cc(F)c3nc4c(c(N(C)c5nc(-c6ccc(F)cc6)c(C#N)s5)c3c2)CC4)CC1 |
| 24.5 nM | 94.1 nM | 137 nM | 148 nM | CN(c1nc(-c2ccc(F)cc2)c(C#N)s1)c1c2c(nc3ccc(N4CC5(CN(C(=O)[C@@H]6CCOC6)C5)C4)nc13)COC2 |
| – | – | 848 nM | 460 nM | CN(c1nc(C23CC(F)(C2)C3)c(C#N)s1)c1c2c(nc3ccc(N4CCN(CC(=O)N5CC(O)C5)CC4)cc13)CCC2 |
